This assay has as its target T1, h-jak3(810-1124) (JAK3: Recombinant human kinase domain) (Homo sapiens, UniProt P52333).
T1 construct: jak3(810- 1124)-sf9-c; made in house; host or cells: Sf9
Briefly: Determination of IC50 of Janus Kinase (JAK) inhibition: JAK3 radioactive end-point 33P-ATP kinase assay. It is filed as biochemical. Conditions: no additive; ATP 1.5 uM, peptide 50 uM, 20 minutes, room temperature; read-out: Ic50 h-jak3(810-1124)-sf9-c: no additive.

By UniProt entry, the sequences of proteins in these tests, tags left out. Residues count along the entry.
UniProt P52333, 810-1124: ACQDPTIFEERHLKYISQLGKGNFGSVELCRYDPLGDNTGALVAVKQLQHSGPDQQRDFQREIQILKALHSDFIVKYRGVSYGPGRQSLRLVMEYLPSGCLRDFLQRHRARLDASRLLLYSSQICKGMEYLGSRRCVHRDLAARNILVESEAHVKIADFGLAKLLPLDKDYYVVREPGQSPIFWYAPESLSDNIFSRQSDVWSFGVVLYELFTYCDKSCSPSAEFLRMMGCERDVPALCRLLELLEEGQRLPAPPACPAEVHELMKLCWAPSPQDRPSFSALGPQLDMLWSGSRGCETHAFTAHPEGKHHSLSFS

The term IC50 denotes the concentration needed to halve the response being measured. On to `C[C@@H](NC(=O)c1c[nH]c2ncc(C3CC3)nc12)C(=O)N1CCCC1` [Example I-1, 2-Cyclopropyl-5H-pyrrolo[2,3-b]pyrazine-7-carboxylic acid ((R)-1-methyl-2-oxo-2-pyrrolidin-1-yl-ethyl)-amide], for which the IC50 is 51.6 nM.

In the case of `C[C@H](NC(=O)c1c[nH]c2ncc(C3CC3)nc12)C(=O)N1CCCC1` [Example I-6, 2-Cyclopropyl-5H-pyrrolo[2,3-b]pyrazine-7-carboxylic acid ((S)-1-methyl-2-oxo-2-pyrrolidin-1-yl-ethyl)-amide], the concentration for half-maximal inhibition (IC50) came to 3040 nM.

In the case of `C[C@@H](NC(=O)c1c[nH]c2ncc(C3CC3)nc12)C(=O)N1CCC1` [Example I-17, 2-Cyclopropyl-5H-pyrrolo[2,3-b]pyrazine-7-carboxylic acid ((R)-2-azetidin-1-yl-1-methyl-2-oxo-ethyl)-amide], the IC50 came out at 148 nM.

As to `C[C@@H](NC(=O)c1c[nH]c2ncc(C3CC3)nc12)C(=O)N1CC(C#N)C1` [Example I-20, 2-Cyclopropyl-5H-pyrrolo[2,3-b]pyrazine-7-carboxylic acid [(R)-2-(3-cyano-azetidin-1-yl)-1-methyl-2-oxo-ethyl]-amide], the IC50 amounted to 7.05 nM.

As for `N#C[C@@H]1CCN(C(=O)[C@H](NC(=O)c2c[nH]c3ncc(C4CC4)nc23)C2CC2)C1` [Example I-83, 2-Cyclopropyl-5H-pyrrolo[2,3-b]pyrazine-7-carboxylic acid [(R)-2-((R)-3-cyano-pyrrolidin-1-yl)-1-cyclopropyl-2-oxo-ethyl]-amide], the IC50 was at most 0.32 nM.

As to `COc1cc(-c2cnc3[nH]cc(C(=O)N[C@H](C)C(=O)N4CC(C#N)C4)c3n2)cc(OC)c1OC` [Example I-125, 2-(3,4,5-Trimethoxy-phenyl)-5H-pyrrolo[2,3-b]pyrazine-7-carboxylic acid [(R)-2-(3-cyano-azetidin-1-yl)-1-methyl-2-oxo-ethyl]-amide], the 50% inhibitory concentration (IC50) came out at 0.35 nM.

(Values after patent US8518945B2, “Pyrrolopyrazine kinase inhibitors” (Hoffmann-La Roche Inc., priority 2010, dated 2013).)
